Results published in BindingDB's records for 1656044 (National Institute of Diabetes and Digestive and Kidney …, 1991).

By UniProt entry, the sequences of proteins in these tests, tags left out.
UniProt Q99720, whole entry, looked up: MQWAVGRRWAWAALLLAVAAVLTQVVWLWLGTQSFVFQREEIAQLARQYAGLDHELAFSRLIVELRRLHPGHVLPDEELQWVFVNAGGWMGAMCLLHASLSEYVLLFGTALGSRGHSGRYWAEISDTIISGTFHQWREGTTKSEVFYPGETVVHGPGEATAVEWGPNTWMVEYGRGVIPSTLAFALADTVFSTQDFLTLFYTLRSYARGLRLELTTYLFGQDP

Key:
[1] = biological target: T1, Sigma non-opioid intracellular receptor 1 (Homo sapiens, UniProt Q99720); assay: Compound was tested for the inhibitory activity against Sigma opioid receptor by using [3H](+)-3-PPP as radioligand in guinea pig brain
[2] = biological target: T1, Sigma non-opioid intracellular receptor 1; assay: ChEBML_201279

O=C(Cc1ccc(Cl)c(Cl)c1)N[C@@H]1CCCC[C@@H]1N1CCCC1 was tested, and the Ki [1] was 11 nM.
O=C(Cc1ccc(Cl)c(Cl)c1)N[C@H]1CCCC[C@H]1N1CCCC1 was tested, and the Ki [2] was 146 nM.
